Assay: in vitro
Conditions: human, liver microsomes

microsomal CLint at 0.1 μM: 287 µL/min/mg
SMILES: Cc1nc(C(=N)NOC(=O)c2c(-c3c(Cl)cccc3Cl)noc2C)cs1 [Compound K18, O4-{[3-(2,6-dichlorophenyl)-5-methylisoxazol-4-yl]carbonyl}-2-methyl-1,3-thiazole-4-carbohydroximamide]

Reference: PMC7695835, “Pharmacological characterisation of novel adenosine A3 receptor antagonists” (Scientific Reports, 2020)
